The assay has as its target T1, PEX5 NTD (1-315) (human, UniProt P50542 1-315).
T1 construct: source: E. coli BL21 (DE3), purified (Ni-NTA, SEC)
The assay can be described thus: NMR titration; 15N-labelled PEX13 construct (100 µM reference) with unlabelled ligand added; 1H,15N correlation spectra; 298 K; 20 mM Tris pH 7.5, 50 mM NaCl. Conditions: both partners purified.

B1: PEX13 SH3-CTR (residues 261-403) (domain or fragment, human, UniProt Q92968 261-403, looked up)
chain: VTDSINWASGEDDHVVARAEYDFAAVSEEEISFRAGDMLNLALKEQQPKVRGWLLASLDGQTTGLIPANYVKILGKRKGRKTVESSKVSKQQQSFTNPTLTKGATVADSLDEQEAAFESVFVETNKVPVAPDSIGKDGEKQDL
notes: 15N-labelled in the NMR titrations, unlabelled as ITC titrant; also called PEX13 SH3-CTR 261-403; source: E. coli BL21 (DE3), purified (Ni-NTA, SUMO cleavage, reverse Ni-NTA, SEC); not shown: His6-SUMO, N-terminal, cleaved
As for B1, the binding result was “binds”.

B2: PEX13 SH3 domain (residues 261-346) (domain or fragment, human, UniProt Q92968 261-346, looked up)
chain: VTDSINWASGEDDHVVARAEYDFAAVSEEEISFRAGDMLNLALKEQQPKVRGWLLASLDGQTTGLIPANYVKILGKRKGRKTVESS
notes: 15N-labelled in the NMR titrations, unlabelled in ITC; also called PEX13 SH3 261-346; source: E. coli BL21 (DE3), purified (Ni-NTA, SUMO cleavage, reverse Ni-NTA, SEC); not shown: His6-SUMO, N-terminal, cleaved
In the case of B2, the binding result is recorded as “binds”.

(Values after paper PMC11024197 (Nature Communications, 2024).)
